In the experiment the target is T1, bacteriophage T4 neck protein gp14 (bacteriophage T4, UniProt P11111 1-256).
T1 sequence (looked up): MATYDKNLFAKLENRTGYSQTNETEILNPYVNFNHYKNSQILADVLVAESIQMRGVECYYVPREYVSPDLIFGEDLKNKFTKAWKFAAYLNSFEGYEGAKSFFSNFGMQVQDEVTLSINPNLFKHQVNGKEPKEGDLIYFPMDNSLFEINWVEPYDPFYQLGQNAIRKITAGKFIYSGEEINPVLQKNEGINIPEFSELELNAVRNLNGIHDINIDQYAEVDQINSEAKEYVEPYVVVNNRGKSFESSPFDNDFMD
Description: SDS-PAGE densitometry of the purified complex.

The text below walks through data of publication PMC12929587 (Nature Communications, 2026).

B1: recombinant Hfq protein (natural protein, E. coli, UniProt P0A6X3 1-102, looked up)
chain: MAKGQSLQDPFLNALRRERVPVSIYLVNGIKLQGQIESFDQFVILLKNTVSQMVYKHAISTVVPSRPVSHHSNNAGGGTSSNYHHGSSAQNTSAQQDSEETE
For orientation: stoichiometry N means the number of molecules, sites or subunits per partner or assembly. In the case of B1, the “stoichiometry N” value is ~1 gp14 per Hfq.
